Measured affinities in a library of Ab-14 heavy chain variants

Target: peptide PDVDLGDISGINAS, taken from heptad repeat 2 (HR2) of SARS-CoV-2 spike.

Parent: Ab-14, a human scFv built as VH, the linker GGGGSGGGGSGGGGS, VL. Only the CDRs of the heavy chain vary.
VH: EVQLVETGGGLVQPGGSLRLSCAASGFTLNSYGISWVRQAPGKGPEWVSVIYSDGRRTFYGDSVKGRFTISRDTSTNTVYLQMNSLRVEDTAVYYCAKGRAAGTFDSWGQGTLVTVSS
VL: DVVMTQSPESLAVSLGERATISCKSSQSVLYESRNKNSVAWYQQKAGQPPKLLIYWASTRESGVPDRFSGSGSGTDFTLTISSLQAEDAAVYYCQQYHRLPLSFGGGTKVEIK

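The starting antibody came from a phage panning campaign against this peptide. These sequences belong to a second round, designed from the earlier measurements on random variants of the parent. Several design methods are mixed in this list. The assay is AlphaSeq: two haploid yeast populations carry antibody and antigen on their surface. The frequency of each diploid, read from paired DNA barcodes, reflects how well the two displayed proteins bind. A regression on co-assayed BCL2-family reference pairs converts the normalised counts of each replicate to an apparent Kd. Each pool was mated in six replicate cultures.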

Positions count from residue 1 of the parent VH; T28R puts R in place of T.
This list holds designs with at most six substitutions.
Each Kd is an estimate from the mating assay, the geometric mean of the replicates in which the pair was seen; lower is stronger.
Where no diploid with the target was found in any replicate, the entry reads "nd": below detection, most likely a poor binder, though not proof of it.
The range of this assay differs from that of the first round, and the authors advise against merging the two.
The authors averaged sequences with at least three values out of six and counted those with two or fewer as poor binders.
Empty control strains, which show no peptide, gave a signal in 1% of pairings with all heavy chain designs; the median was 120 nM and 95% of these signals were weaker than 7.0 nM. No background was subtracted. The control count says in how many pairings with the empty strains this scFv gave a signal.

With T28R+S31Q+G61A the result was nd (0 of 6 replicates; controls 0 of 18).
With T28S+S63A+R100Q the result was 720 pM (3 of 6 replicates; controls 0 of 18).
With T28S+G61T+R100W the result was 18 nM (6 of 6 replicates; controls 0 of 18).
With T28E+A101V+S107T the result was 61 nM (6 of 6 replicates; controls 0 of 18).
With T28S+S31Q+G61S the result was 1.5 nM (6 of 6 replicates; controls 1 of 18).
With T28Q+G61K+R100Q+S107L the result was 20 nM (2 of 6 replicates; controls 0 of 18).
With T28Y+G61A+R100Q+A101L the result was 22 nM (6 of 6 replicates; controls 1 of 18).
With T28Q+G61A+S63Q+R100Q+A101T the result was 3.8 nM (1 of 6 replicates; controls 0 of 18).
With R100Q+G103D the result was nd (0 of 6 replicates; controls 0 of 18).
With L29I+A101S+T104K+F105M the result was nd (0 of 6 replicates; controls 0 of 18).
With R100T+A101E+S107T the result was 290 pM (6 of 6 replicates; controls 0 of 18).
With G61S+T104R the result was nd (0 of 6 replicates; controls 0 of 18).
With N30D+G61T+S63Q+S107Q the result was 21 nM (3 of 6 replicates; controls 1 of 18).
With N30D+G61S+S107R the result was 13 nM (6 of 6 replicates; controls 1 of 18).
With T28D+S31T+R100Q+A101T the result was 1.2 nM (6 of 6 replicates; controls 1 of 18).
With T28E+A101Q the result was 4.7 nM (6 of 6 replicates; controls 1 of 18).
With T28D+G61K+A101Q the result was 850 pM (6 of 6 replicates; controls 1 of 18).
With S31E+G103E+S107T the result was 520 nM (1 of 6 replicates; controls 0 of 18).
With R56Q+G61A+R100Q the result was 4.7 nM (6 of 6 replicates; controls 0 of 18).
With G61L+T104L+D106E the result was nd (0 of 6 replicates; controls 0 of 18).
With T28S+R100Q+A101T the result was 5.0 nM (6 of 6 replicates; controls 0 of 18).
With N30E+A101Q+S107T the result was 14 nM (6 of 6 replicates; controls 1 of 18).
With T28D+G61L+S63R+R100N the result was 22 nM (5 of 6 replicates; controls 0 of 18).
With T28D+G61K+A101T+S107Q the result was 3.6 nM (4 of 6 replicates; controls 0 of 18).
With T28N+A101T+S107K the result was 13 nM (6 of 6 replicates; controls 0 of 18).
With T28D+S31E+S53A+G61A+R100K+S107M the result was 180 pM (6 of 6 replicates; controls 0 of 18).
With T28S+G61A+R100E+S107A the result was 4.1 nM (6 of 6 replicates; controls 0 of 18).
With T28W+S31Q+G61A the result was 29 nM (3 of 6 replicates; controls 0 of 18).
With T28S+S31A+R100Q+A101T the result was 2.1 nM (6 of 6 replicates; controls 0 of 18).
With G26K+T28K+G61I+A101N the result was nd (0 of 6 replicates; controls 0 of 18).
With S31E+S63D+G103V+S107K the result was nd (0 of 6 replicates; controls 0 of 18).
With G26K+S31E+A101V the result was nd (0 of 6 replicates; controls 0 of 18).
With T28Q+S31E+G61T the result was 4.8 nM (6 of 6 replicates; controls 0 of 18).
With S63N+A101E+S107T the result was 2.1 nM (6 of 6 replicates; controls 0 of 18).
With T28N+F59A+A101N the result was 2.6 nM (6 of 6 replicates; controls 0 of 18).
With T28S+S31T+G61I the result was 5.2 nM (4 of 6 replicates; controls 0 of 18).
With S31L+S107Y the result was nd (0 of 6 replicates; controls 1 of 18).
With S53A+R100G+D106K the result was 23 nM (1 of 6 replicates; controls 0 of 18).
With T28S+S31N+S63D+A101T the result was 1.8 nM (6 of 6 replicates; controls 1 of 18).
With T28D+G61I+S107M the result was 5.0 nM (6 of 6 replicates; controls 0 of 18).
With R56Y+T58V+S63E+T104N the result was nd (0 of 6 replicates; controls 0 of 18).
With T28S+S31E+G61C+R100T+S107R the result was 10 nM (6 of 6 replicates; controls 2 of 18).

Excerpt, the first 4 entries:

With T28R+S31Q+G61A the result was nd (0 of 6 replicates; controls 0 of 18).
With T28S+S63A+R100Q the result was 720 pM (3 of 6 replicates; controls 0 of 18).
With T28S+G61T+R100W the result was 18 nM (6 of 6 replicates; controls 0 of 18).
With T28E+A101V+S107T the result was 61 nM (6 of 6 replicates; controls 0 of 18).

Values reported by Li et al. 2023, doi:10.1038/s41467-023-39022-2 (FLAb copy).